Data taken from US20100160411A1, “BENZOXATHIINE AND BENZOXATHIOLE DERIVATIVES AND USES THEREOF” (Wyeth, priority 2006, published 2010).

Sequences of proteins named here, by UniProt entry; tags and fusion partners are left off. Residues count along the entry.
UniProt P28335, 33-458: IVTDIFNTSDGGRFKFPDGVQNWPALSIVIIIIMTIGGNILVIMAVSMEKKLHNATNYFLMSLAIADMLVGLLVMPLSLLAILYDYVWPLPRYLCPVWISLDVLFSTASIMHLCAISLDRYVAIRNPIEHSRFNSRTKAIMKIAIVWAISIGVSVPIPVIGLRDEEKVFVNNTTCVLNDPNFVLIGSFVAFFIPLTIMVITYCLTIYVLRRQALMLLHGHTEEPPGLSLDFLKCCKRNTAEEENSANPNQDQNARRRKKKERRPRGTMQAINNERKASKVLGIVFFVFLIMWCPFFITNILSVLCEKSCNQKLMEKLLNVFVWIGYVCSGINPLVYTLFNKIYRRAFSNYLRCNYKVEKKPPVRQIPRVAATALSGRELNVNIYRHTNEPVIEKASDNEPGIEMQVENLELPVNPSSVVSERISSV

Experiments:
[1] = target: T1, human 5-hydroxytryptamine-2C (h5-HT2C) receptor (Homo sapiens, UniProt P28335); test: [125I]DOI binding to membranes of CHO cells expressing the h5-HT2C receptor; conditions: reference compounds; 95% confidence interval in parentheses; [125I]DOI radioligand, CHO cell membranes
T1 construct: expressed in transfected cells; host or cells: CHO (Chinese Hamster Ovary) cells; membrane preparation

human 5-HT2C receptor = human 5-HT2C receptor (Homo sapiens, UniProt P28335); test: calcium mobilization (FLIPR) in CHO cells stably expressing the human 5-HT2C receptor; type: cell-based; conditions: reference compounds, Fluo-3-AM

1-(2,5-dimethoxy-4-iodophenyl)isopropylamine [DOI]
Ki [1]: 6.2 nM
EC50 (human 5-HT2C receptor): 0.5 nM
